What was measured:
[1] = molecular target: Rabbit muscle actin, globular (G-) actin polymerized to filamentous (F-) actin (rabbit) (UniProt P68135); test: co-sedimentation of 1-33 µM RNase B1 with 30 µM F-actin; Scatchard analysis
[2] = molecular target: Rabbit muscle actin, globular (G-) actin polymerized to filamentous (F-) actin (rabbit) (UniProt P68135); test: co-sedimentation of 1-33 µM RNase B1 with 30 µM F-actin; RNase activity of the supernatant; Scatchard analysis

Aspergillus niger B1 extracellular RNase (RNase B1) (enzyme)
actin molecules bound per RNase molecule (actin molecules per RNase molecule) [1]: 2 | RNase:actin molar ratio (abscissa intercept of Scatchard regression line) [2]: 0.45 molar ratio

— patent publication US20050113327A1
